Source: US20070060638A1, “Methods and therapies for potentiating therapeutic activities of a cannabinoid receptor agonist via administration of a cannabinoid receptor antagonist” (priority 2005, published 2007)

Sequences of proteins named here, by UniProt entry; tags and fusion partners are left off.
UniProt P20272, whole entry: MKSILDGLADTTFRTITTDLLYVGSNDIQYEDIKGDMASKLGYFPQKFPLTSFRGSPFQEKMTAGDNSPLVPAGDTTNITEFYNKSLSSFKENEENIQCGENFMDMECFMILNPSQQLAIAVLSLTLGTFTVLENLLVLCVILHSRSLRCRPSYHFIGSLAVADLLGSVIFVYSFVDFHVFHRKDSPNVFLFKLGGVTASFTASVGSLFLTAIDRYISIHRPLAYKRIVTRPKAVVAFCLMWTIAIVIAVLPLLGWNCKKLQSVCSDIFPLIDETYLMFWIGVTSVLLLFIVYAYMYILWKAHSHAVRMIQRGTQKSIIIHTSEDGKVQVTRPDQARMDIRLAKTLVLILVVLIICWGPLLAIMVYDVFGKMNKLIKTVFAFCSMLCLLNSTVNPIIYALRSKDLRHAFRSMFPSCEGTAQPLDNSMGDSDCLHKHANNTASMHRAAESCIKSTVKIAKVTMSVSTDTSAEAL

Target: CB1 receptors (Rattus norvegicus, UniProt P20272)
Details: striatal tissue, animals treated chronically with WIN (tolerant)

CS(=O)(=O)O.Cc1c(C(=O)c2cccc3ccccc23)c2cccc3c2n1[C@H](CN1CCOCC1)CO3 [WIN, (R)-(+)-[2,3-Dihydro-5-methyl-3-(4-morpholinylmethyl)pyrrolo[1,2,3-de]-1,4-benzoxazin-6-yl]-1-naphthalenylmethanone mesylate]
CB1 receptor G-protein coupling: switch in the CB1 receptor G-protein coupling from the Gαi type to the Gαs type
